Thallium flux slope data for 1 compound are collected here from PubChem BioAssay AID1718 (Vanderbilt High Throughput Screening Facility, 2009).

This is a selection; strong and weak results do not stand in their true shares. Inconclusive results are not listed. Active and inactive are the calls of the source.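 How the source made its calls: active means thallium flux slope above the same plate's solvent-control mean plus 3 SD in both duplicate wells; inconclusive means duplicate wells that disagreed; inactive means the rest.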

The assay is described as follows: native HEK Tl+ uptake effects, second counter-screen – HEK cells, counterscreen 2, counter-screen for KCC2 modulator project, confirmation (AID 1718).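 Further: run without ouabain in cells lacking the KCC2 cotransporter; slope of fluorescence scaled to its starting value between 10 and 20 s.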 Conditions: HEK293 parental, thallium flux FluoZin-2 fluorescence slope; at 10 µM. Summed up: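 Material: parental HEK cells. Medium: HBSS, 20 mM HEPES. Reagent: thallium sulfate stimulus, 12 mM in buffer, pH 7.3. Incubation: overnight cell culture at 37 °C, 48 min dye loading, compound before thallium. Signal: FluoZin-2 fluorescence kinetics. Read-out basis: thallium influx rate. Repeats: Per-replicate slope values.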
In general terms: Counterscreens check selectivity or assay interference.
For the compound `CP(=O)(Nc1ccccc1)Oc1ccc(F)cc1` (stereo unspecified), the thallium flux slope was inactive: 0.0103.
